Measured values: patent US10196396B2 (priority 2016, dated 2019)

Protein sequences, listed by entry. Tags and fused reporters are not part of them.
UniProt P30542, whole entry: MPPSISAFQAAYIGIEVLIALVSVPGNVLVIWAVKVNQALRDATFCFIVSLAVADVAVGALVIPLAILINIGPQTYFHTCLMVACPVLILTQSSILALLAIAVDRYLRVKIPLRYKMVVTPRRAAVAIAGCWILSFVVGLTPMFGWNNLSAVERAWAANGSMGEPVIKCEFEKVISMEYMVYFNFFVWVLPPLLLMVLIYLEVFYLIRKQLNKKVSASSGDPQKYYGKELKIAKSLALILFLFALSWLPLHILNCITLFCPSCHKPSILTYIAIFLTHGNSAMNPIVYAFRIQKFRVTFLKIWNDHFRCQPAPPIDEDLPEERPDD
UniProt P0DMS8, whole entry: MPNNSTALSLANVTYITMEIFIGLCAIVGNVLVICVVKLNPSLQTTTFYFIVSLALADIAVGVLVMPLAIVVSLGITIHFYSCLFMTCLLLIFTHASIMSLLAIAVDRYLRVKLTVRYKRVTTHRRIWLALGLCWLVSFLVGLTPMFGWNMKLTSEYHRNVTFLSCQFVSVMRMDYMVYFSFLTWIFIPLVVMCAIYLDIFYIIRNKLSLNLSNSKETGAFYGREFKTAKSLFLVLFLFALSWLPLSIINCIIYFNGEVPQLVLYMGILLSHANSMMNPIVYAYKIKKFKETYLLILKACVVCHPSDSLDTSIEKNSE

What was measured:
[1] = target: human A1 adenosine receptor (Homo sapiens (Human), UniProt P30542); assay: biochemical
[2] = target: human A2a adenosine receptor (Homo sapiens (Human), UniProt P29274); assay: biochemical
human A3 receptor = human A3 receptor (Homo sapiens (Human), UniProt P0DMS8); assay: cell-based
[3] = target: human A3 adenosine receptor (Homo sapiens (Human), UniProt P0DMS8); assay: biochemical

SMILES	Ki [1]	Ki [2]	IC50 (human A3 receptor)	Ki [3]
Cc1cnc(-c2ccc(CNc3nccn4c([C@@H]5SC[C@@H](O)[C@H]5O)cnc34)cc2F)s1 [Compound 212, (2S,3R,4S)-2-(8-((3-fluoro-4-(5-methylthiazol-2-yl)benzyl)amino)imidazo[1,2-a]pyrazin-3-yl)tetrahydrothiophene-3,4-diol]	> 10000 nM	> 10000 nM	> 10000 nM	–
O[C@@H]1[C@H](O)CS[C@H]1c1cnc2c(NCc3cccc(N4CCOCC4)c3)nccn12 [Compound 210, (2S,3R,4S)-2-(8-((3-morpholinobenzyl)amino)imidazo[1,2-a]pyrazin-3-yl)tetrahydrothiophene-3,4-diol]	> 10000 nM	1000 to 10000 nM	10 to 100 nM	10 to 100 nM
Cc1nnc(-c2ccc(CNc3nccn4c([C@@H]5SC[C@@H](O)[C@H]5O)cnc34)cc2F)o1 [Compound 213, (2S,3R,4S)-2-(8-((3-fluoro-4-(5-methyl-1,3,4-oxadiazol-2-yl)benzyl)amino)imidazo[1,2-a]pyrazin-3-yl)tetrahydrothiophene-3,4-diol]	> 10000 nM	> 10000 nM	10 to 100 nM	100 to 1000 nM
Cc1cnc(-c2ccc(CNc3nccn4c([C@@H]5SC[C@@H](O)[C@H]5O)nnc34)cc2F)o1 [Compound 93, (2S,3R,4S)-2-(8-((3-fluoro-4-(5-methyloxazol-2-yl)benzyl)amino)-[1,2,4]triazolo[4,3-a]pyrazin-3-yl)tetrahydrothiophene-3,4-diol]	> 10000 nM	> 10000 nM	–	1000 to 10000 nM
Cc1cnc(-c2ccc(CNc3nccn4c([C@@H]5SC[C@@H](O)[C@H]5O)cnc34)cc2F)o1 [Compound 211, (2S,3R,4S)-2-(8-((3-fluoro-4-(5-methyloxazol-2-yl)benzyl)amino)imidazo[1,2-a]pyrazin-3-yl)tetrahydrothiophene-3,4-diol]	> 10000 nM	> 10000 nM	10 to 100 nM	100 to 1000 nM
O[C@@H]1[C@H](O)CC[C@H]1c1cnc2c(N[C@H]3C[C@@H]3c3ccccc3)nccn12 [Compound 230, (1R,2S,3S)-3-(8-(((1S,2R)-2-phenylcyclopropyl)amino)imidazo[1,2-a]pyrazin-3-yl)cyclopentane-1,2-diol]	–	–	10 to 100 nM	–
O[C@@H]1[C@H](O)CS[C@H]1c1cnc2c(N[C@H]3C[C@@H]3c3ccc(F)c(F)c3)nccn12 [Compound 209, (2S,3R,4S)-2-(8-(((1S,2R)-2-(3,4-difluorophenyl)cyclopropyl)amino)imidazo[1,2-a]pyrazin-3-yl)tetrahydrothiophene-3,4-diol]	–	–	10 to 100 nM	–
O[C@@H]1[C@H](O)CS[C@H]1c1cnc2c(NCc3cccc(Cl)c3)cccn12 [Compound 221, (2S,3R,4S)-2-(8-((3-chlorobenzyl)amino)imidazo[1,2-a]pyridin-3-yl)tetrahydrothiophene-3,4-diol]	–	–	> 10000 nM	–
O[C@@H]1[C@H](O)CC[C@H]1c1nnc2c(N[C@H]3C[C@@H]3c3ccccc3)nccn12 [Compound 240, (1R,2S,3S)-3-(8-(((1S,2R)-2-phenylcyclopropyl)amino)-[1,2,4]triazolo[4,3-a]pyrazin-3-yl)cyclo pentane-1,2-diol]	–	–	10 to 100 nM	–
O[C@@H]1[C@H](O)CC[C@H]1c1cnc2c(NCc3cc(Cl)ccc3F)nccn12 [Compound 225, (1R,2S,3S)-3-(8-((5-chloro-2-fluorobenzyl)amino)imidazo[1,2-a]pyrazin-3-yl)cyclopentane-1,2-diol]	–	–	10 to 100 nM	–
Cn1nnc(-c2cccc(CNc3nccn4c([C@@H]5SC[C@@H](O)[C@H]5O)cnc34)c2)n1 [Compound 214, (2S,3R,4S)-2-(8-((3-(2-methyl-2H-tetrazol-5-yl)benzyl)amino)imidazo[1,2-a]pyrazin-3-yl)tetrahydrothiophene-3,4-diol]	> 10000 nM	> 10000 nM	< 10 nM	100 to 1000 nM
